# Measured values taken from ChEMBL document CHEMBL1143739, “SAR study of bicyclo[4.1.0]heptanes as melanin-concentrating hormone receptor R1 antagonists: taming hERG” (Bioorg Med Chem, 2007).
# Protein sequences, listed by entry. Tags and fused reporters are not part of them. Lines headed by an entry give the natural chain unless they say otherwise; changes in a name come on top.
# UniProt Q99705: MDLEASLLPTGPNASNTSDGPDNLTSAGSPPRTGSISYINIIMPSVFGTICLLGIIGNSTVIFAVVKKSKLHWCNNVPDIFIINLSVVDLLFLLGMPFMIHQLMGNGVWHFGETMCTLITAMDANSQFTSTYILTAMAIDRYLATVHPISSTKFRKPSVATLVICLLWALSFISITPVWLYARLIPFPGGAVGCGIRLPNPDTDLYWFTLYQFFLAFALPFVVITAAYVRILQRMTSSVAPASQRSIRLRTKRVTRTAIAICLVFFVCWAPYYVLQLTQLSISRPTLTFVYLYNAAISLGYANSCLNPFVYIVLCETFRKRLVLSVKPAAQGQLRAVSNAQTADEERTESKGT
# Target: Melanin-concentrating hormone receptor 1 (Homo sapiens, UniProt Q99705)
# Experiment: Displacement of [125I]MCH from MCHR1 expressed in CHO cells
# Format: cell-based
# Method in brief: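 Human MCH R1, CHO cell membranes (0.1 mg/mL) on SPA beads (1 mg/mL). Buffer: 25 mM HEPES, 10 mM MgCl2, 5 mM MnCl2, 0.1% BSA, pH 7.4. Incubation 2–4 h at room temperature, scintillation count. Ki by non-linear regression; mean ± range of two determinations, each in quadruplicate.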
row,Ki,Compound
1,8.7 nM,N#Cc1cccc([C@]23CC[C@@H](N(CC4CCN(C5CCOCC5)CC4)C(=O)Nc4ccc(F)c(Cl)c4)CC2C3)c1 (stereo partly drawn)
2,34 nM,COC(=O)c1cccc([C@]23CC[C@@H](N(CCN(C(C)C)C(C)C)C(=O)Nc4ccc(F)c(F)c4)CC2C3)c1 (stereo partly drawn)
3,15 nM,N#Cc1cccc([C@]23CC[C@@H](N(CCN4CCC[C@@H]4CO)C(=O)Nc4ccc(F)c(Cl)c4)CC2C3)c1 (stereo partly drawn)
